These results are taken from ChEMBL document CHEMBL1123344, “N-Substituted sulfonamide carbonic anhydrase inhibitors with topical effects on intraocular pressure” (J Med Chem, 1986).

As usually defined, the Ki is a dissociation constant, usually derived from enzyme kinetics or from competition with a known ligand.

The assay concerns the target Carbonic anhydrase.

`NS(=O)(=O)c1ccc([N+](=O)[O-])cc1` registered a Ki of 200 pM.
